One experiment has as its system HeLa cells. As to the kind of experiment: HeLa cells viability assay. In kind it is cell-based, human. Particulars: read-out: IC50 (HeLa); Table 5. The procedure:
Relative numbers of viable cells was determined by XTT assay. Briefly, in a 96-well plate, we added 50 μl of a mixture of 1 mg/ml of XTT (2,3-bis(2-methoxy-4-nitro-5-sulfophenyl)-5-[(phenylamino)carbonyl]-2H-tetrazolium hydroxide) (Polysciences, Washington, Pa.) containing 0.025 mM PMS (phenazine methosulfate) to each well. The 96-well plates were reincubated for an additional 4 hours to allow for XTT formazan production. Then, the contents of each plate were mixed and optical densities were determined at a wavelength of 450 nm (OD450). Net OD450 was determined after subtracting OD450 of blank wells. […] Immunoblot analysis of BCL-XL was accomplished as previously described.

For another experiment, the system named is ZR75-1 cells. As to the kind of experiment: XTT dye reduction assay. The note with it: read-out: IC50, cell viability ZR75-1, three days. Format: cell-based, human. The procedure:
The effects of the compounds on viability of tumor cells in culture were monitored by using XTT assays with MCF7 and ZR75-1 cell lines. MCF7 cells were grown in DMEM containing 10% fetal bovine serum, penicillin/streptomycin, supplemented with 10^−10 M insulin, 1 mM sodium pyruvate and glutamine. ZR75-1 cells were grown in RPMI containing 10% fetal bovine serum, penicillin/streptomycin, supplemented with HEPES buffer, 1 mM sodium pyruvate and glutamine. Cells were regularly tested for mycoplasma contamination. Cells were seeded triplicates at an initial cell density of 1,000 cells per well. Blank wells received no cells.
Gossypol, purpurogallin and 5D1 were added at final concentrations of 0, 1, 10 and 100 μM and incubated for three days. Relative numbers of viable cells was determined by XTT assay. Briefly, in a 96-well plate, we added 50 μl of a mixture of 1 mg/ml of XTT (2,3-bis(2-methoxy-4-nitro-5-sulfophenyl)-5-[(phenylamino)carbonyl]-2H-tetrazolium hydroxide) (Polysciences, Washington, Pa.) containing 0.025 mM PMS (phenazine methosulfate) to each well. The 96-well plates were reincubated for an additional 4 hours to allow for XTT formazan production. Then, the contents of each plate were mixed and optical densities were determined at a wavelength of 450 nm (OD450). Net OD450 was determined after subtracting OD450 of blank wells. […]
On the technique in general: Formazan colour is commonly taken as a measure of viable cells.

In general, IC50 refers to the concentration that gives 50% inhibition. Consider `COC(=O)c1cc(O)c(=O)c2cc(O)c(O)cc2c1`, for which, in the experiment with HeLa cells, the IC50 was found to be 30 µM.

Turning to `CCOC(=O)c1cc(O)c(=O)c2cc(O)c(O)cc2c1`, the IC50 with ZR75-1 cells is 50 µM.

The record behind these values is patent publication US9115061B2, “Naphthalene-based inhibitors of anti-apoptotic proteins” (BURNHAM INSTITUTE FOR MEDICAL RESEARCH, priority 2007, dated 2015).
